Earlier results in patent US20130142868A1 (priority 2010, published 2013).

Settings: in vivo; cited from earlier work

Interferon β: protein of a cited intranasal study (Thorne et al., 2008)
blood levels: with low blood | levels of protein in most brain regions: effective levels of
